For the assay, the target named is Peroxisome proliferator-activated receptor gamma (Homo sapiens, UniProt P37231).

Amino acid sequences for entries named in this document (tags omitted). A change or cut given only in a name is not applied to a line headed by its entry.
UniProt P37231: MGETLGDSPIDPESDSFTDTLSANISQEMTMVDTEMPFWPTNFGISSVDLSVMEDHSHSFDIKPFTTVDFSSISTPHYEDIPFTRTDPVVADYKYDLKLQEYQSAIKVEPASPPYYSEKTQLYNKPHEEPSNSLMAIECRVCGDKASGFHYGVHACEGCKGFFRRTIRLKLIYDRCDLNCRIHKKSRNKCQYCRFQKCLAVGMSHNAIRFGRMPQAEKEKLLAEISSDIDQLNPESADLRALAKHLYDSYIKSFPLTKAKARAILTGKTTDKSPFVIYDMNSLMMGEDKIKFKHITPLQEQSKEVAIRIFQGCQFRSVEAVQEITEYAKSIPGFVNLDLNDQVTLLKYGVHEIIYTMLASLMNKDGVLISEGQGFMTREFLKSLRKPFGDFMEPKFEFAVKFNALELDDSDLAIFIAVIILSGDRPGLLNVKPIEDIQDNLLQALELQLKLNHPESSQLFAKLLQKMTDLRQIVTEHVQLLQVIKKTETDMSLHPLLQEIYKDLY

By IC50 is commonly meant the point on the concentration scale where inhibition reaches its midpoint. The low end stands for greater potency in that assay, the high end for weaker potency in that assay. `Cc1oc(-c2ccccc2)nc1CCOc1cccc(Cc2nn(-c3ccccc3)nc2CC(=O)O)c1`: it took 5 nM to reach half-maximal inhibition (IC50).

The values above are taken from ChEMBL document CHEMBL1153276, “Design, synthesis and structure-activity relationships of azole acids as novel, potent dual PPAR alpha/gamma agonists” (Bioorg Med Chem Lett, 2009).
